Laboratory results from patent EP0975604B1, “PYRIDAZINONES AS INHIBITORS OF CYCLOOXYGENASE-2” (MERCK FROSST CANADA & CO., priority 1997, dated 1998).

By UniProt entry, the sequences of proteins in these tests, tags left out. Residues count along the entry.
UniProt P23219, 24-599: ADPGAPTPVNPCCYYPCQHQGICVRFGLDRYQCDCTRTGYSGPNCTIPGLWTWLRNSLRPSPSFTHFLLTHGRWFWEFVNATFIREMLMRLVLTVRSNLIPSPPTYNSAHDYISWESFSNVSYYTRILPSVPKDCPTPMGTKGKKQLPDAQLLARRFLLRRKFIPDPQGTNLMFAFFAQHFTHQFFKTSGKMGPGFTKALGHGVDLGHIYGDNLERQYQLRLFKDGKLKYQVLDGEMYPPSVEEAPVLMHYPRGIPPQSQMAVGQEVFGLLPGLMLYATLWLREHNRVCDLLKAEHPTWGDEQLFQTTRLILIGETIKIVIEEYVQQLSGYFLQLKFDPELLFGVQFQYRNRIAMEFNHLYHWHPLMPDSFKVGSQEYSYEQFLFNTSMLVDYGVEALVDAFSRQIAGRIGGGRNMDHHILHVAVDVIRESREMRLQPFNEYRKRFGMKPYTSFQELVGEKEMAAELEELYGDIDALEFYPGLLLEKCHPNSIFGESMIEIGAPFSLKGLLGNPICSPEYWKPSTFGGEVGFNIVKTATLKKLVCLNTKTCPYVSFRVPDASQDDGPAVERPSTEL

Target: COX-1 (Homo sapiens, UniProt P23219)
Assay: Assay of COX-1 activity from U937 cell microsomes
Type: biochemical
Design: endogenous in cells; host or cells: U937 cells, 100,000 x g microsomal pellet
Conditions: PGE2, read-out: COX-1 (IC50 µM) U-937
Experimental: U 937 cells are pelleted by centrifugation at 500 x g for 5 min and washed once with phosphate-buffered saline and repelleted. Cells are resuspended in homogenization buffer consisting of 0.1 M Tris-HCl, pH 7.4, 10 mM EDTA, 2 µg/ml leupeptin, 2 µg/ml soybean trypsin inhibitor, 2 µg/ml aprotinin and 1 mM phenyl methyl sulfonyl fluoride. The cell suspension is sonicated 4 times for 10 sec and is centrifuged at 10,000 x g for 10 min at 4° C. The supernatant is centrifuged at 100,000 x g for 1 hr at 4 °C. The 100,000 x g microsomal pellet is resuspended in 0.1 M Tris-HCl, pH 7.4, 10 mM EDTA to approximately 7 mg protein/ml and stored at -80° C.
Assays are performed in duplicate in a final volume of 250 µl. Initially, 5 µl of DMSO vehicle or drug in DMSO are added to 20 µl of 0.1 M Tris-HCl buffer, pH 7.4 containing 10 mM EDTA in wells of a 96-deepwell polypropylene titre plate. […] Samples are neutralized with 25 µl of 1 N NaOH prior to quantitation of PGE2 content by radioimmunoassay (Dupont-NEN or Amersham assay kits). […]
In the assay, inhibition is determined by measuring the amount of prostaglandin E2 (PGE2) synthesized in the presence of arachidonic acid, cyclooxygenase-1 or cyclooxygenase-2 and a putative inhibitor.

`Cn1ncc(-c2ccc(S(C)(=O)=O)cc2)c(-c2ccccc2)c1=O` [Example 2, 2-Methyl-5-(4-methylsulfonyl)phenyl-4-phenyl-2H-pyridazin-3-one] showed an IC50 of over 10 µM.
